Laboratory results reported in article PMC6553764 (PLoS ONE, 2019).

How the values were obtained:
Conditions in all cases: both partners purified
[1] = target: T1, Kap95 (UniProt Q06142 1-861); assay: SPR; FSFG6 immobilised via C-terminal Cys (GLC chip), high density 791 RU; association 30 s; 100 ul/min, TBT-PVP, 25 C; fit: one-to-one plus mass transport limitation model
T1 construct: Kap95, a karyopherin transport factor; also called Kap95 without the GST domain
T1 sequence (looked up): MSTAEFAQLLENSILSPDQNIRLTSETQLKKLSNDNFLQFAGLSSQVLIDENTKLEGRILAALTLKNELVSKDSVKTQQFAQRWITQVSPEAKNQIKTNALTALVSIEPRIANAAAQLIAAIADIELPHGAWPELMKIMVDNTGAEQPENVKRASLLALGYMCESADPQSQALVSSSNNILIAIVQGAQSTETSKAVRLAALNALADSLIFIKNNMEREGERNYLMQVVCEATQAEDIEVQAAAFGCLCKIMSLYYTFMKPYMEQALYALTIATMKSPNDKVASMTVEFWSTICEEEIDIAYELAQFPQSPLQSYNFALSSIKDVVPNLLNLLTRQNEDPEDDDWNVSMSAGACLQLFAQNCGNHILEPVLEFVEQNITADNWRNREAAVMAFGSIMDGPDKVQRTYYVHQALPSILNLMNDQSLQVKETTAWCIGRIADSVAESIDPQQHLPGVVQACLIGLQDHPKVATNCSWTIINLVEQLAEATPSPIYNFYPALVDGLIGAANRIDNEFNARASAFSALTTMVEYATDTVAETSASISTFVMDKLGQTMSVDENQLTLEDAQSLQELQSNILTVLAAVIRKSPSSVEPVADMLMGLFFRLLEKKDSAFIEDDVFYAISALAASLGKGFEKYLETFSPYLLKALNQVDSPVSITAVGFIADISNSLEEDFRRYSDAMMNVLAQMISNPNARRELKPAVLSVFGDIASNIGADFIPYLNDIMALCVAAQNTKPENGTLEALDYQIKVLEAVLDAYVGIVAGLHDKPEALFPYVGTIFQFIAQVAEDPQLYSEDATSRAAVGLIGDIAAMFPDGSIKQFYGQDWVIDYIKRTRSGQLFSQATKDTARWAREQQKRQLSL

[2] = target: T1, Kap95; assay: SPR; FSFG6 immobilised via C-terminal Cys (GLC chip), medium density 550 RU; association 30 s; 100 ul/min, TBT-PVP, 25 C; fit: one-to-one model
[3] = target: T1, Kap95; assay: SPR; FSFG6 immobilised via C-terminal Cys (GLC chip), medium density 550 RU; association 60 s; 100 ul/min, TBT-PVP, 25 C; fit: one-to-one plus mass transport limitation model
[4] = target: T1, Kap95; assay: SPR; FSFG6 immobilised via C-terminal Cys (GLC chip), high density 791 RU; association 15 s; 100 ul/min, TBT-PVP, 25 C; Langmuir isotherm analysis
[5] = target: T1, Kap95; assay: SPR; FSFG6 immobilised via C-terminal Cys (GLC chip), medium density 550 RU; association 15 s; 100 ul/min, TBT-PVP, 25 C; fit: one-to-one plus mass transport limitation model
[6] = target: T1, Kap95; assay: SPR; FSFG6 immobilised via C-terminal Cys (GLC chip), low density 415 RU; association 60 s; 100 ul/min, TBT-PVP, 25 C; fit: one-to-one plus mass transport limitation model
[7] = target: T1, Kap95; assay: SPR; FSFG6 immobilised via C-terminal Cys (GLC chip), low density 415 RU; association 15 s; 100 ul/min, TBT-PVP, 25 C; fit: one-to-one model
[8] = target: T1, Kap95; assay: SPR; FSFG6 immobilised via C-terminal Cys (GLC chip), high density 791 RU; association 60 s; 100 ul/min, TBT-PVP, 25 C; fit: one-to-one plus mass transport limitation model
[9] = target: T1, Kap95; assay: SPR; FSFG6 immobilised via C-terminal Cys (GLC chip), low density 415 RU; association 60 s; 100 ul/min, TBT-PVP, 25 C; fit: one-to-one model
[10] = target: T1, Kap95; assay: SPR; FSFG6 immobilised via C-terminal Cys (GLC chip), high density 791 RU; association 30 s; 100 ul/min, TBT-PVP, 25 C; fit: one-to-one model
[11] = target: T1, Kap95; assay: SPR; FSFG6 immobilised via C-terminal Cys (GLC chip), medium density 550 RU; association 15 s; 100 ul/min, TBT-PVP, 25 C; fit: one-to-one model
[12] = target: T1, Kap95; assay: SPR; FSFG6 immobilised via C-terminal Cys (GLC chip), low density 415 RU; association 15 s; 100 ul/min, TBT-PVP, 25 C; fit: one-to-one plus mass transport limitation model
[13] = target: T1, Kap95; assay: SPR; FSFG6 immobilised via C-terminal Cys (GLC chip), medium density 550 RU; association 120 s; 100 ul/min, TBT-PVP, 25 C; fit: one-to-one model

- Kd [1]: 0.76 nM
- koff [1]: 0.0027 s⁻¹
- kon [1]: 3.57e+06 M⁻¹ s⁻¹
- Kd [2]: 3.27 nM
- koff [2]: 0.00265 s⁻¹
- kon [2]: 810000 M⁻¹ s⁻¹
- Kd [3]: 2.49 nM
- koff [3]: 0.00386 s⁻¹
- kon [3]: 1.55e+06 M⁻¹ s⁻¹
- Kd [4]: 64.5 nM
- Kd [5]: 1.82 nM
- koff [5]: 0.00465 s⁻¹
- kon [5]: 2.56e+06 M⁻¹ s⁻¹
- Kd [6]: 4.52 nM
- koff [6]: 0.00409 s⁻¹
- kon [6]: 905000 M⁻¹ s⁻¹
- Kd [7]: 3.42 nM
- koff [7]: 0.0037 s⁻¹
- kon [7]: 1.08e+06 M⁻¹ s⁻¹
- Kd [8]: 1.11 nM
- koff [8]: 0.00314 s⁻¹
- kon [8]: 2.83e+06 M⁻¹ s⁻¹
- Kd [9]: 5.49 nM
- koff [9]: 0.00301 s⁻¹
- kon [9]: 549000 M⁻¹ s⁻¹
- Kd [10]: 1.99 nM
- koff [10]: 0.00199 s⁻¹
- kon [10]: 997000 M⁻¹ s⁻¹
- Kd [11]: 1.46 nM
- koff [11]: 0.00303 s⁻¹
- kon [11]: 2.07e+06 M⁻¹ s⁻¹
- Kd [12]: 6.7 nM
- koff [12]: 0.00653 s⁻¹
- kon [12]: 975000 M⁻¹ s⁻¹
- Kd [13]: 5.45 nM
- koff [13]: 0.0025 s⁻¹
- kon [13]: 459000 M⁻¹ s⁻¹
B1: FSFG6-Cys-His6 (domain or fragment)
chain: not shown
modifications: conjugated to the sensor surface through the C-terminal cysteine (maleimide)
notes: Segment of Nsp1FG (S. cerevisiae Nsp1) with six repeats of the FxFG-type region, followed by an added Cys, LE and His6
